Results taken from patent publication US20250101052A1, “COMPOUND FOR EGFR KINASE INHIBITOR, COMPOSITION, AND USE THEREOF” (INNOVATION INSTITUTE FOR ARTIFICIAL INTELLIGENCE IN …, priority 2021, published 2025).

The chains behind the UniProt entries cited, without tags or fusion partners. Residues count along the entry.
UniProt P00533, 25-1210 T790M/C797S/L858R limits assumed: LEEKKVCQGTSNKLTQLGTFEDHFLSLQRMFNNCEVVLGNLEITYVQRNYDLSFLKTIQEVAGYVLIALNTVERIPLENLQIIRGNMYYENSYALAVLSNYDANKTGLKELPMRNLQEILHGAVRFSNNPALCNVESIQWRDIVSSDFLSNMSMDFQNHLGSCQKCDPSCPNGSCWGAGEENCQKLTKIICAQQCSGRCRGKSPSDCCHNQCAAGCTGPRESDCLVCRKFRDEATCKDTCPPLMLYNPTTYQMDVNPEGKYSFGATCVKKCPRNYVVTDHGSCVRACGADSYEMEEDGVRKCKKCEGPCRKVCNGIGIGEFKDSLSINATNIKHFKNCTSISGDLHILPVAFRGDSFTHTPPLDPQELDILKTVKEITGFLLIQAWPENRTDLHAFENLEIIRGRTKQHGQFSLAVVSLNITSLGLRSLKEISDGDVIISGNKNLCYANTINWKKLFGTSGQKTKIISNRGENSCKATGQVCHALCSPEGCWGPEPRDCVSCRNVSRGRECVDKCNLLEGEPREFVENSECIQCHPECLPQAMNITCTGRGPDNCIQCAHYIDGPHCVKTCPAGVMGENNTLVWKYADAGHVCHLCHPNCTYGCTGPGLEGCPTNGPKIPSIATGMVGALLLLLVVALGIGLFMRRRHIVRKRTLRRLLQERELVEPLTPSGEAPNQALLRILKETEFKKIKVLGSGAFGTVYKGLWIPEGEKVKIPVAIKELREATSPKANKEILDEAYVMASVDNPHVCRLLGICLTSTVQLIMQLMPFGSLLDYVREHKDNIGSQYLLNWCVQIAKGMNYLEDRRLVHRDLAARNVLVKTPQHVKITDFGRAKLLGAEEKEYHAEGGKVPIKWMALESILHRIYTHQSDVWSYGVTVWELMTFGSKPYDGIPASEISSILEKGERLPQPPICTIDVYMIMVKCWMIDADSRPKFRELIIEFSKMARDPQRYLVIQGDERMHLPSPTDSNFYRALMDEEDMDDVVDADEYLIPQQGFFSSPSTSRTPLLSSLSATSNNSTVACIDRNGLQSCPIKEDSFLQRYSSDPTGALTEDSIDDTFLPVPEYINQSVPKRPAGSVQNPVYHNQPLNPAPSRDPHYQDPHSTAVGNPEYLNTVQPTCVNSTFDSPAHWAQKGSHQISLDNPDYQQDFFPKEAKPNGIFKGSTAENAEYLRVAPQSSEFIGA

Biological target: EGFR^L858R/T790M/C797S kinase (Homo sapiens (Human), UniProt P00533, C797S/L858R/T790M)
Experiment: EGFR^L858R/T790M/C797S kinase inhibitory activity experiment
Details: read-out: EGFR^L858R/T790M/C797S (IC50 NM), in vitro
Method: EGFRL^858R/T790M/C797S kinase inhibitory activity experiment: The compounds of the present invention have excellent in-vitro inhibitory activity against EGFR^L858R/T790M/C797S kinase
• Centrifuge (manufacturer: Eppendorf, model: 5430) • Microplate reader (manufacturer: Perkin Elmer, model: Caliper EZ ReaderII) • Echo 550 (manufacturer: Labcyte, model: Echo 550) • Experimental Method • Compound preparation: • A 10 mM storage solution was prepared.
(1) 1×Kinase buffer was prepared.
(2) Preparation of concentration gradient of compound: The tested compound has a test concentration starting from 1 μM, diluted 10 times, with 10 concentrations, and subjected to single-well or multi-well detection. The compound was diluted to a 100% DMSO solution with a final concentration of 100 times in a 384 source plate. […]
(10) The conversion rate was read using Caliper EZ Reader.
where Conversion %_sample is the conversion rate reading of the sample; Conversion %_min: the average value of negative control wells, representing the conversion rate reading of wells without enzyme activity; Conversion %_max: the average value of positive control wells, representing the conversion rate reading of wells without compound inhibition; % Inhibition represents the inhibition rate. […]

CCc1cc(Nc2ncc(Cl)c(Nc3ccc(C)c(C)c3P(C)(C)=O)n2)c(OC)cc1N1CC2(CCN(C3CC3)CC2)C1 showed an IC50 of 670 pM.
